{"source": "patent US11713331B2", "about": "“Benzene 1,4-bis(bisphosphonic acid)-based metal complexes, method of synthesis and applications thereof” (priority 2020, dated 2023)", "experiment": "Dissolution profile in fasted-state simulated gastric fluid (release of BBPA)", "format": "physicochemical", "settings": "FaSSGF pH 1.60, 37° C., 72 h", "data": [{"substance": "benzene 1,4-bis(bisphosphonic acid) [BBPA]", "values": [{"measurement": "% Released (BBPA)", "result": 99, "unit": "%"}]}]}
